Test results taken from patent US20110275699A1 (UNIVERSITY OF CALIFORNIA, published 2011).

Sequences of proteins named here, by UniProt entry; tags and fusion partners are left off. A change or cut given only in a name is not applied to a line headed by its entry.
UniProt Q02880: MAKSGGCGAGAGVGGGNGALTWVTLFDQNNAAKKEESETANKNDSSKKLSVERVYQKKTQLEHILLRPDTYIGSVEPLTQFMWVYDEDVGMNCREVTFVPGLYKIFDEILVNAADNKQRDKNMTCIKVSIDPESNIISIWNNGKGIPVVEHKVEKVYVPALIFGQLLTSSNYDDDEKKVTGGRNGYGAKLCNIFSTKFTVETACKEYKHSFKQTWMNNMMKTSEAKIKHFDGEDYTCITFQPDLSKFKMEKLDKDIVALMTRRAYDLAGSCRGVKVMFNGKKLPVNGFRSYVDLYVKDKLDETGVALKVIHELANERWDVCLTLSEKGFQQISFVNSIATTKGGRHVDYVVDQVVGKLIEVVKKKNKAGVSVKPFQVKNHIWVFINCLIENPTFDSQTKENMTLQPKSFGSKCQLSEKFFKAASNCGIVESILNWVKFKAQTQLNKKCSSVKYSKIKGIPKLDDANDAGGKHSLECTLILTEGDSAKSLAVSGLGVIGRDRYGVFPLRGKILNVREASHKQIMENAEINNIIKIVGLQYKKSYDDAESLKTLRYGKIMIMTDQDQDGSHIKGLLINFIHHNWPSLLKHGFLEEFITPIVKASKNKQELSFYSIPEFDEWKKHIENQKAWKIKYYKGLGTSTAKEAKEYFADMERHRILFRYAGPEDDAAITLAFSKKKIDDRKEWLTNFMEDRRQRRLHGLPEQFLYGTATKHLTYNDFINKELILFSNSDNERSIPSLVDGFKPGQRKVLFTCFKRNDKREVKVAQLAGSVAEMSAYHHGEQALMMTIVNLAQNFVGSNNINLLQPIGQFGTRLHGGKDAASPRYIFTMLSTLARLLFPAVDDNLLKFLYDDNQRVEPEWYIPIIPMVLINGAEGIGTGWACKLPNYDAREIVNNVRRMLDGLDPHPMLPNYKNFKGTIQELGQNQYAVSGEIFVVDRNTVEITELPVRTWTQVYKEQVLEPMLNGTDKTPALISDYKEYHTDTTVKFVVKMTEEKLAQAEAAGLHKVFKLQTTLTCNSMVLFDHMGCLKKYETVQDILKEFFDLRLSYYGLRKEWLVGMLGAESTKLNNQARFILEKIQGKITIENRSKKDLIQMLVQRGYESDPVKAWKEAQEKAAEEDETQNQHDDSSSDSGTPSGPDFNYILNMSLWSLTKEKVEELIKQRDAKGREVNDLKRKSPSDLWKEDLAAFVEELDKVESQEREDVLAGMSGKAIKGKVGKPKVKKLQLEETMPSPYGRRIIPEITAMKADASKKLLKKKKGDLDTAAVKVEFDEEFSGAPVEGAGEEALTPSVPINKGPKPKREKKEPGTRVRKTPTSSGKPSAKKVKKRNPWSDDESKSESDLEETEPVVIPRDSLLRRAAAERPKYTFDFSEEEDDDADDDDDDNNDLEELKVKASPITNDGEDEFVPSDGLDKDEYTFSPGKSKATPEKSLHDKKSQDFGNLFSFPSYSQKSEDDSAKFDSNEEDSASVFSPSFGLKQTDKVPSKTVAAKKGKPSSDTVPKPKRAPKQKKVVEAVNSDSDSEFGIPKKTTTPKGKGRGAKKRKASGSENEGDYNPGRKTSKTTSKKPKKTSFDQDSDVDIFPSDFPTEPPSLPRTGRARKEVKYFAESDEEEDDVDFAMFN

Columns and labels:
Assay in all cases: GST pull-down, direct interaction
[1] = target: T1, Ku70, in vitro translated 35S-labeled (UniProt P12956 1-609, limits assumed, 35S-labeled)
T1 sequence (looked up): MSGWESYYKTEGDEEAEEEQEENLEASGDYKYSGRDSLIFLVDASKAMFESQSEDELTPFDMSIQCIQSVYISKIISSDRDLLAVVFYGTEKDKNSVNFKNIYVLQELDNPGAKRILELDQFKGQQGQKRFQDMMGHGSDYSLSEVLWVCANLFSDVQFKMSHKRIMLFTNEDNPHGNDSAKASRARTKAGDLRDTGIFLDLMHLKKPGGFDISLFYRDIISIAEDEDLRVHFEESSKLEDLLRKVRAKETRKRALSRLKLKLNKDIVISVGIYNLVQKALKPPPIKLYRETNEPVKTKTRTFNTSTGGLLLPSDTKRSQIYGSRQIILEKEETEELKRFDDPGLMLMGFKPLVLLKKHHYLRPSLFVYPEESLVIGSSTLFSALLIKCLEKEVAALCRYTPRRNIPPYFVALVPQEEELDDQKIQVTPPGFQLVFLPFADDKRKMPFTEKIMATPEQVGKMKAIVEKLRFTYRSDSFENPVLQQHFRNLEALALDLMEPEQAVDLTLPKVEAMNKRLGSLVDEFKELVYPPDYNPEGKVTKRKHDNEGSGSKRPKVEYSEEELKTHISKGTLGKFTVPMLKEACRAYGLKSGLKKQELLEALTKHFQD
Method: (§1) Purified USF-1 complex was subjected to autoradiography (left) for labeled proteins. GST protein alone was used as a control. USF-1-GST fusion protein was incubated with purified recombinant PARP-1 or PP1 before subjection to GST pull-down and immunoblotting (top right) for indicated proteins. GST and GSTUSF proteins after SDS-PAGE were stained with Coomassie blue (bottom right). (B) Detection of USF-1 complex: TAP eluates were separated by BN-PAGE and then subjected to Western blotting with anti-FLAG for USF-1. In lanes 2 and 3, supershift assays were carried out with 2 μg polyclonal anti-USF-1 (lanes 2) or 2 μg control polyclonal anti-GAPDH (lane 3). A minor faster migrating complex observed was probably due to partial dissociation of USF-1 interacting proteins from the complex during the sample preparation. (C) A representative ChIP for USF-1 interacting protein association to the p53 promoter in liver (left). p53 gene expression in livers from fasted or fed mice determined by RTqPCR (right). (D) IP of USF-1 interacting proteins from HepG2 cells treated with or without insulin at 100 nM for 30 min. Immunoprecipitates were Western blotted for each of the USF-1 interacting proteins. (E) ChIP analysis for biotin incorporation into 3′-ends of DNA breaks and DNA-PK and TopoIIβ binding to the control FAS coding region in livers from fasted or fed FAS-CAT transgenic or wild type mice.

[2] = target: T2, Ku80, in vitro translated 35S-labeled (UniProt P13010 1-732, limits assumed, 35S-labeled)
T2 sequence (looked up): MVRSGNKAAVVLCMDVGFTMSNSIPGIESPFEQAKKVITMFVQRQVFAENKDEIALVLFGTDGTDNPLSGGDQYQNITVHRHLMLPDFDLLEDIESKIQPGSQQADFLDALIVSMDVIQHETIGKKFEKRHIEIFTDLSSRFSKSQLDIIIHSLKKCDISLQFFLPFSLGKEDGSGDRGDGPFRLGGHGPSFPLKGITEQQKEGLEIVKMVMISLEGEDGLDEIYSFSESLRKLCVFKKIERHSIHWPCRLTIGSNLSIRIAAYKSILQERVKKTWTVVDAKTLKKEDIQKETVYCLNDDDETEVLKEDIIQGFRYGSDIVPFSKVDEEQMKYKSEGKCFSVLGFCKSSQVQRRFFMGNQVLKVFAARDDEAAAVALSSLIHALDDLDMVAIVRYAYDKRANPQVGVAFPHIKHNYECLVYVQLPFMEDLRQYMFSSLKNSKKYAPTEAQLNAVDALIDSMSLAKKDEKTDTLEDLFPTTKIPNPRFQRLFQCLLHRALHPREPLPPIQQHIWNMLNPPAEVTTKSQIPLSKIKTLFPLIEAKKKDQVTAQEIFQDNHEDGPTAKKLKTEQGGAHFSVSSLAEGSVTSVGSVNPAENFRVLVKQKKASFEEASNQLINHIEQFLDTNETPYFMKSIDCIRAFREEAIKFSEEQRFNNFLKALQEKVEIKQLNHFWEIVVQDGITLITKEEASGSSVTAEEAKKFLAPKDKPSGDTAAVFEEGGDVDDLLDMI
Method: as §1

[3] = target: TopoIIβ, in vitro translated 35S-labeled (UniProt Q02880, 35S-labeled)
Method: as §1

binding result [1]: no binding
binding result [2]: no binding
binding result [3]: no binding
B1: Bacterially expressed USF-1-GST fusion protein (other, UniProt P22415 1-310, looked up)
chain: MKGQQKTAETEEGTVQIQEGAVATGEDPTSVAIASIQSAATFPDPNVKYVFRTENGGQVMYRVIQVSEGQLDGQTEGTGAISGYPATQSMTQAVIQGAFTSDDAVDTEGTAAETHYTYFPSTAVGDGAGGTTSGSTAAVVTTQGSEALLGQATPPGTGQFFVMMSPQEVLQGGSQRSIAPRTHPYSPKSEAPRTTRDEKRRAQHNEVERRRRDKINNWIVQLSKIIPDCSMESTKSGQSKGGILSKACDYIQELRQSNHRLSEELQGLDQLQLDNDVLRQQVEDLKNKNLLLRAQLRHHGLEVVIKNDSN
notes: also called GSTUSF; not shown: GST
